{"source": "patent US10537555B2", "about": "“Complex of angiotensin receptor antagonist and neutral endopeptidase inhibitor” (CHENGDU EASTON BIOPHARMACEUTICALS CO., LTD., priority 2015, dated 2020)", "key": {"[1]": {"test": "Equilibrium solubility test at 37° C.", "conditions": "pH=3.5 ammonium acetate/ammonia buffer solution"}, "[2]": {"test": "in vivo pharmacokinetic studies in Beagle dogs", "conditions": "single oral administration of the drug capsule", "source_text": "Example 1 in capsules: the capsules containing Example 1, provided by the Department of Drug Formulations of Chengdu Eastern Pharma Co., dosage 312 μmol/capsule, Lot: 150901;\nExample 3 in capsules: the capsules containing Example 3, provided by the Department of Drug Formulations of Chengdu Eastern Pharma Co., dosage 312 μmol/capsule, Lot: 150901;\nExample 5 in capsules: the capsules containing Example 5, provided by the Department of Drug Formulations of Chengdu Eastern Pharma Co., dosage 312 μmol/capsule, Lot: 150901;\nFour male Beagle dogs, body weight 8±2 kg, age 10-12 months, purchased from Chengdu Dashuo Biological Technology Co., Ltd., Certificate of Conformity: SCXK (Sichuan) 2013-24.\nThe drug administration period: using Beagle dogs in a 4×4 crossover pilot study. There is a total of 4 test cycles. In each cycle 4 dogs were administered 4 different drug capsules. After each cycle, paused for two days to let the medications fully metabolize before starting the next experiment cycle.\nIn every cycle, 1 ml blood sample was collected in EDTA-K2 tubes at 5 min, 15 min, 0.5 h, 1 h, 2 h, 3 h, 4 h, 6 h, 8 h, 10 h, 24 h, 36 h, 48 h prior to and after administering the single dosage into the forelimb or hind limb veins and centrifuged for 10 min at 3000 r/min. Plasma was separated and kept in a freezer at −70° C.\nEvenly mixing 50 μl plasma with 5 μl of a working solution or a blank diluent, adding 150 μl precipitating agent acetonitrile that contains an internal standard, vortex mixed for 2 minutes, centrifuged for 5 minutes at 12000 rpm. 100 μl supernatant was mixed with 100 μl pure water. The injection sample size was 10 μl.\nSPSS was used for statistical analysis and experimental data was expressed with the mean plus or minus standard deviation. Comparison between the multiple sets of data used analysis of variance (ANOVA), while Least Significant Difference (LSD) Test was employed to compare two data points."}, "[3]": {"test": "Hygroscopy test (25±1° C., RH 80%±2%, 24 hours)", "format": "physicochemical", "source_text": "The results are in Table XII."}}, "note": "Where two headings read alike, the source gives them in different places."}
{"substance": "[3-((1S, 3R)-1-biphenyl-4-ylmethyl-3-ethoxycarbonyl-1-butylcarbamoyl)propionate-(S)-3′-methyl-2′-(pentanoyl{2″-(tetrazol-5-ylate)biphenyl-4′-ylmethyl}amino)butyrate]6CaNa16.15H2O [Example 1]", "values": [{"measurement": "Equilibrium solubility pH 3.5", "setting": "[1]", "result": 0.49, "unit": "mg/mL"}, {"measurement": "TMAX of valsartan relative to the comparative example", "setting": "[2]", "result": "moved significantly earlier"}, {"measurement": "CMAX and AUC of valsartan, AHU377 and LBQ657 relative to the comparative example", "setting": "[2]; P<0.05", "result": "clearly higher than that of the comparative sample"}, {"measurement": "Appearance at Hour Twenty-Four", "setting": "[3]; 24 hours", "result": "Off white powder"}, {"measurement": "Weight Increase", "setting": "[3]; 24 hours", "result": 6.95, "unit": "%"}, {"measurement": "Appearance at Hour Zero", "setting": "[3]; hour zero", "result": "Off white powder"}, {"measurement": "Change of HPLC purity in stability test", "setting": "10 days at 60° C., 25° C. RH90%±5%, or 4500 lux±500 lux", "result": "only slight decreases in purities"}, {"measurement": "Purity, AHU377", "setting": "Humidity 25° C. RH90%, 0 days", "result": 62.89}, {"measurement": "Purity, Valsartan", "setting": "Humidity 25° C. RH90%, 0 days", "result": 37.11}, {"measurement": "Purity, AHU377", "setting": "Humidity 25° C. RH90%, 5 days", "result": 62.84}, {"measurement": "Purity, Valsartan", "setting": "Humidity 25° C. RH90%, 5 days", "result": 37.12}, {"measurement": "Purity, AHU377", "setting": "Humidity 25° C. RH90%, 10 days", "result": 62.83}, {"measurement": "Purity, Valsartan", "setting": "Humidity 25° C. RH90%, 10 days", "result": 37.10}, {"measurement": "Purity, AHU377", "setting": "Light 4500Lux, 0 days", "result": 62.89}, {"measurement": "Purity, Valsartan", "setting": "Light 4500Lux, 0 days", "result": 37.11}, {"measurement": "Purity, AHU377", "setting": "Light 4500Lux, 5 days", "result": 62.85}, {"measurement": "Purity, Valsartan", "setting": "Light 4500Lux, 5 days", "result": 37.13}, {"measurement": "Purity, AHU377", "setting": "Light 4500Lux, 10 days", "result": 62.81}, {"measurement": "Purity, Valsartan", "setting": "Light 4500Lux, 10 days", "result": 37.09}, {"measurement": "Purity, AHU377", "setting": "Temperature 60° C., 0 days", "result": 62.89}, {"measurement": "Purity, Valsartan", "setting": "Temperature 60° C., 0 days", "result": 37.11}, {"measurement": "Purity, AHU377", "setting": "Temperature 60° C., 5 days", "result": 62.87}, {"measurement": "Purity, Valsartan", "setting": "Temperature 60° C., 5 days", "result": 37.09}, {"measurement": "Purity, AHU377", "setting": "Temperature 60° C., 10 days", "result": 62.84}, {"measurement": "Purity, Valsartan", "setting": "Temperature 60° C., 10 days", "result": 37.07}]}
